# Patent US20260235630A1 (EIKEN KAGAKU, published 2026)
# Amino acid sequences for entries named in this document (tags omitted). Residues count along the entry.
# UniProt P69905, 2-142, chain 1 of 2: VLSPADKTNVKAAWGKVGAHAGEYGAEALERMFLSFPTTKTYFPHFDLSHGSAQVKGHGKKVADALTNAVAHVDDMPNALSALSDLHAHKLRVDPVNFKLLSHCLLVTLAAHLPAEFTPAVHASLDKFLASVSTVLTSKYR
# Human hemoglobin, UniProt P68871, 2-147, chain 2 of 2: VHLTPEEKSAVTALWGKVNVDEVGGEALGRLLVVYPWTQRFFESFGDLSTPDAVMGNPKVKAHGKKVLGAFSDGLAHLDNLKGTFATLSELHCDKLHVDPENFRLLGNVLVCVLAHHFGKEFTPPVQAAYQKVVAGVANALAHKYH
# B1: Porcine Hpt, without enzyme treatment (other)
# chain: AETGNEATDATDDSCPKPPEIPKGYVEHMVRYHCQTYYKLRTAGDGVYTLDSNKQWTNKVTGEKLPECEAVCGKPKNPVDQVQRIMGGSLDAKGSFPWQAKMISHHNLTSGATLINEQWLLTTAKNLRLGHKNDTKAKDIAPTLRLYVGKKQEVEIEKVIFHPDNSTVDIGLIKLKQKVPVNERVMPICLPSKDYVNVGLVGYVSGWGRNANLNFTEHLKYVMLPVADQEKCVQYYEGSTVPEKKTPKSPVGVQPILNEHTFCAGLSKYQEDTCYGDAGSAFAVHDKDDDTWYAAGILSFDKSCRTAEYGVYVRVTSILDWIQTTIADN
# modifications: natural N-linked glycans on Asn 125, 151, 183, 232
# notes: Purified from porcine serum; also called purified porcine Hpt
# B2: Porcine dHpt (ENGase) (other)
# chain: B1 chain
# modifications: N-linked glycans (Asn 125, 151, 183, 232) cut by Endo F2, which leaves one GlcNAc residue (with or without fucose)
# notes: also called ENGase-treated porcine Hpt
# B3: Porcine dHpt (PNGase) (other)
# chain: B1 chain
# modifications: N-linked glycans (Asn 125, 151, 183, 232) cut off by PNGase F
# notes: also called PNGase-treated porcine Hpt
# B4: Equine dHpt (ENGase) (other)
# chain: VDTGNEATDFTDDSCPKPPEIPNGYVEHLVRYQCKNYYRLRSEGDGVYALNSEKQWVNKASGTKLPECEAVCGKPKNPVDQVQRIIGGLLDAKGSFPWQAKLVSRHNLTTGATLISEQWLLTTAQNLFLNHTPDAKPKDIAPTLKLYVGRKQPVEIEKVVFHPDYQEVDIGLIKLKEKVPVGERVMPICLPSKDYAQVGRVGYVSGWGRNANFNFTELLKYVTLPVADQDTCVKHYEGSTVPEKKTNRSSVGVQPILNEHTFCAGLSKFQEDTCYGDAGSAFVIHDEEDDTWYAAGILSFDKSCAVAEYGVYVKVPSILDWVQKTIAEN
# modifications: N-linked glycans (Asn 125, 148, 232, 265) cut by Endo F2, which leaves one GlcNAc residue (with or without fucose)
# notes: also called ENGase-treated equine Hpt
# B5: Equine Hpt, without enzyme treatment (other)
# chain: B4 chain
# modifications: natural N-linked glycans on Asn 125, 148, 232, 265
# notes: Purified from equine serum; also called purified equine Hpt
# B6: Human Hpt (type 1-1), without enzyme treatment (other)
# chain: VDSGNDVTDIADDGCPKPPEIAHGYVEHSVRYQCKNYYKLRTEGDGVYTLNNEKQWINKAVGDKLPECEAVCGKPKNPANPVQRILGGHLDAKGSFPWQAKMVSHHNLTTGATLINEQWLLTTAKNLFLNHSENATAKDIAPTLTLYVGKKQLVEIEKVVLHPNYSQVDIGLIKLKQKVSVNERVMPICLPSKDYAEVGRVGYVSGWGRNANFKFTDHLKYVMLPVADQDQCIRHYEGSTVPEKKTPKSPVGVQPILNEHTFCAGMSKYQEDTCYGDAGSAFAVHDLEEDTWYATGILSFDKSCAVAEYGVYVKVTSIQDWVQKTIAEN
# modifications: natural N-linked glycans on Asn 125, 148, 152, 182 (Table 1, type 1 numbering)
# notes: Purified from human serum; [α1β]2; The entry is the prepro form; also called purified human Hpt
# B7: Equine dHpt (PNGase) (other)
# chain: B4 chain
# modifications: N-linked glycans (Asn 125, 148, 232, 265) cut off by PNGase F
# notes: also called PNGase-treated equine Hpt
# B8: Human dHpt (ENGase) (other)
# chain: B6 chain
# modifications: N-linked glycans (Asn 125, 148, 152, 182) cut by Endo F2, which leaves one GlcNAc residue (with or without fucose)
# notes: also called ENGase-treated human Hpt
# B9: Human dHpt (PNGase) (other)
# chain: B6 chain
# modifications: N-linked glycans (Asn 125, 148, 152, 182) cut off by PNGase F
# notes: also called PNGase-treated human Hpt
# Target: T1, Human hemoglobin (human, UniProt P69905 2-142; P68871 2-147)
# Assay: Hb value by OC-Hemodia Auto III reagent against sample without Hpt; Hpt 0.5 Unit (3.1 pmol/mL); no stool
row,Binder,Ratio to no Hpt addition (%)
1,B1,81%
2,B2,94%
3,B3,89%

# Target: T1, Human hemoglobin
# Assay: 59.4 µg/mL human Hb mixed with Hpt original solution at 0.500% (vol/vol); free Hb read with latex reagent No. 16 + No. 11
row,Binder,free-Hb concentration left
1,B4,34.7 µg/mL
2,B5,51 µg/mL
3,B1,57 µg/mL
4,B6,50.8 µg/mL

# Target: T1, Human hemoglobin
# Assay: Hb value by OC-Hemodia Auto III reagent against sample without Hpt; Hpt 1 Unit (6.2 pmol/mL); no stool
row,Binder,Ratio to no Hpt addition (%)
1,B1,65%
2,B2,88%
3,B3,78%

# Target: T1, Human hemoglobin
# Assay: Hb value by OC-Hemodia Auto III reagent against sample without Hpt; Hpt 0.5 Unit (3.1 pmol/mL); no stool
# Remark: another data set of the same source
row,Binder,Ratio to no Hpt addition (%)
1,B4,106%
2,B5,74%
3,B7,88%

# Target: T1, Human hemoglobin
# Assay: Hb value by OC-Hemodia Auto III reagent against sample without Hpt; Hpt 0.125 Unit (0.775 pmol/mL); no stool
row,Binder,Ratio to no Hpt addition (%)
1,B1,97%
2,B2,98%
3,B3,97%

# Target: T1, Human hemoglobin
# Assay: Hb value by OC-Hemodia Auto III reagent against sample without Hpt; Hpt 0.25 Unit (2.325 pmol/mL); with stool
# Protocol: (§1) The Hb values of these samples were measured using an Hb measurement reagent (OC-Hemodia® Auto III ‘Eiken’ available from EIKEN CHEMICAL CO., LTD.) and a fully automated fecal occult blood immunochemical analyzer (OC Sensor DIANA available from EIKEN CHEMICAL CO., LTD.). The measured values were used as the initial starting values.
row,Binder,Ratio to no Hpt addition (%)
1,B1,93%
2,B6,95%
3,B2,100%
4,B3,95%
5,B8,98%
6,B9,99%

# Target: T1, Human hemoglobin
# Assay: as above
# Remark: another data set of the same source
row,Binder,Ratio to no Hpt addition (%)
1,B4,100%
2,B5,93%
3,B7,98%

# Target: T1, Human hemoglobin
# Assay: Hb value by OC-Hemodia Auto III reagent against sample without Hpt; Hpt 1 Unit (9.3 pmol/mL); with stool
# Protocol: as §1
row,Binder,Ratio to no Hpt addition (%)
1,B4,96%
2,B5,67%
3,B1,69%
4,B6,75%
5,B2,94%
6,B3,81%
7,B7,92%
8,B8,86%
9,B9,87%

# Target: T1, Human hemoglobin
# Assay: Hb value by OC-Hemodia Auto III reagent against sample without Hpt; Hpt 0.125 Unit (0.775 pmol/mL); no stool
# Remark: another data set of the same source
row,Binder,Ratio to no Hpt addition (%)
1,B4,101%
2,B5,94%
3,B7,97%

# Target: T1, Human hemoglobin
# Assay: 59.4 µg/mL human Hb mixed with Hpt original solution at 0.250% (vol/vol); free Hb read with latex reagent No. 16 + No. 11
row,Binder,free-Hb concentration left
1,B4,45.3 µg/mL
2,B5,54.6 µg/mL
3,B1,57.8 µg/mL
4,B6,55.9 µg/mL

# Target: T1, Human hemoglobin
# Assay: Hb value by OC-Hemodia Auto III reagent against sample without Hpt; Hpt 1 Unit (6.2 pmol/mL); no stool
# Remark: another data set of the same source
row,Binder,Ratio to no Hpt addition (%)
1,B4,93%
2,B5,50%
3,B7,68%

# Target: T1, Human hemoglobin
# Assay: Hb value by OC-Hemodia Auto III reagent against sample without Hpt; Hpt 0.5 Unit (4.65 pmol/mL); with stool
row,Binder,Ratio to no Hpt addition (%)
1,B6,88%
2,B8,94%
3,B9,93%

# Target: T1, Human hemoglobin
# Assay: 59.4 µg/mL human Hb mixed with Hpt original solution at 1.000% (vol/vol); free Hb read with latex reagent No. 16 + No. 11
row,Binder,free-Hb concentration left
1,B4,15.6 µg/mL
2,B5,43.2 µg/mL
3,B1,55.9 µg/mL
4,B6,43.7 µg/mL

# Target: T1, Human hemoglobin
# Assay: Hb value by OC-Hemodia Auto III reagent against sample without Hpt; Hpt 0.25 Unit (1.55 pmol/mL); no stool
row,Binder,Ratio to no Hpt addition (%)
1,B1,89%
2,B2,96%
3,B3,95%

# Target: T1, Human hemoglobin
# Assay: Hb value by OC-Hemodia Auto III reagent against sample without Hpt; Hpt 0.5 Unit (4.65 pmol/mL); with stool
# Remark: another data set of the same source
# Protocol: as §1
row,Binder,Ratio to no Hpt addition (%)
1,B4,101%
2,B5,85%
3,B1,84%
4,B2,98%
5,B3,91%
6,B7,97%

# Target: T1, Human hemoglobin
# Assay: Hb value by OC-Hemodia Auto III reagent against sample without Hpt; Hpt 0.25 Unit (1.55 pmol/mL); no stool
# Remark: another data set of the same source
row,Binder,Ratio to no Hpt addition (%)
1,B4,101%
2,B5,90%
3,B7,92%

# Target: T1, Human hemoglobin
# Assay: Hb value by OC-Hemodia Auto III reagent against sample without Hpt; Hpt 0.125 Unit (0.775 pmol/mL); no stool
# Remark: another data set of the same source
row,Binder,Ratio to no Hpt addition (%)
1,B6,94%
2,B8,98%
3,B9,99%

# Target: T1, Human hemoglobin
# Assay: 59.4 µg/mL human Hb mixed with Hpt original solution at 0.125% (vol/vol); free Hb read with latex reagent No. 16 + No. 11
row,Binder,free-Hb concentration left
1,B4,51.8 µg/mL
2,B5,58.3 µg/mL
3,B1,58.6 µg/mL
4,B6,57.1 µg/mL

# Target: T1, Human hemoglobin
# Assay: Hb value by OC-Hemodia Auto III reagent against sample without Hpt; Hpt 2 Unit (12.4 pmol/mL); no stool
row,Binder,Ratio to no Hpt addition (%)
1,B6,39%
2,B8,65%
3,B9,47%

# Target: T1, Human hemoglobin
# Assay: Hb value by OC-Hemodia Auto III reagent against sample without Hpt; Hpt 0.5 Unit (3.1 pmol/mL); no stool
# Remark: another data set of the same source
row,Binder,Ratio to no Hpt addition (%)
1,B6,85%
2,B8,93%
3,B9,93%

# Target: T1, Human hemoglobin
# Assay: Hb value by OC-Hemodia Auto III reagent against sample without Hpt; Hpt 0.25 Unit (1.55 pmol/mL); no stool
# Remark: another data set of the same source
row,Binder,Ratio to no Hpt addition (%)
1,B6,91%
2,B8,98%
3,B9,94%

# Target: T1, Human hemoglobin
# Assay: Hb value by OC-Hemodia Auto III reagent against sample without Hpt; Hpt 1 Unit (6.2 pmol/mL); no stool
# Remark: another data set of the same source
row,Binder,Ratio to no Hpt addition (%)
1,B6,72%
2,B8,87%
3,B9,82%
